# Antibody variant affinities, Ab-91 heavy chain, assay 2

The measurements come from Engelhart et al. 2022 (doi:10.1038/s41597-022-01779-4) through the FLAb antibody collection.

The target is the same throughout: PDVDLGDISGINAS, from the HR2 region of SARS-CoV-2 spike.

Each scFv is VL, a (GGGGS)3 linker, VH, as in the parent Ab-91, and differs from it in the CDRs of the heavy chain only.
VL: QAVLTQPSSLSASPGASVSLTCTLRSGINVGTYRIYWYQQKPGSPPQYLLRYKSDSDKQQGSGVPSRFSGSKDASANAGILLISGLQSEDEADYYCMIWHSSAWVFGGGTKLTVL
VH: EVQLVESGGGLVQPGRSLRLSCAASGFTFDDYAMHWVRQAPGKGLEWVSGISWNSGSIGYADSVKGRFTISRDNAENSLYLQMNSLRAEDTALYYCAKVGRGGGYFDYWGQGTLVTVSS

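Phage display of a naive human antibody library on the peptide gave the parent. The library (AAYL51) carries one to three amino acid substitutions per variant, with no insertions or deletions. AlphaSeq pools MATa yeast showing the antibodies with MATalpha yeast showing the peptide. The frequency of each diploid, read from paired DNA barcodes, reflects how well the two displayed proteins bind. Scores were corrected for input abundance and mapped to Kd with protein pairs of known affinity run in the same pool. Mating was done three times.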

Variants are written as CDR1, CDR2 and CDR3 of the heavy chain (limits as in the source). Parent: GFTFDDYAMH, GISWNSGSIGYADSVK, VGRGGGYFDY.
All variants listed here change S55 of the VH, counted from its first residue.
Kd is apparent (estimated from mating counts) and averaged on the log scale over replicates with a signal. Smaller is tighter.
A pair that was not seen in any replicate is written "no signal"; this usually means weak binding, but a binder can also be missed.

GFTHDDYAMH / GISWNTGSIGYADSVK / VGRNGGYFDY: 200 µM (3 of 3 replicates; controls 5 of 9).
GFTFDDYAMH / DISWNDGSIGYADSVD / VGRGGGYFDY: 2.0 µM (1 of 3 replicates; controls 4 of 9).
EFTFDDYAMH / GISYNVGSIGYADSVK / VGRGGGYFDY: 2.6 µM (1 of 3 replicates; controls 1 of 9).
GFTFDDYAMH / GISWNCGSIGYAHSVK / VGCGGGYFDY: 46 µM (1 of 3 replicates; controls 1 of 9).
GFTFDDYAMF / GISWNPGSIGYLDSVK / VGRGGGYFDY: no signal (0 of 3 replicates; controls 2 of 9).
GFTFDDYAMH / MISWNVGSIGYADRVK / VGRGGGYFDY: 210 µM (1 of 3 replicates; controls 2 of 9).
GFTFDDYAMH / GISWNVGWIGYADSVK / VGRGGGYFDY: 180 µM (2 of 3 replicates; controls 7 of 9).
GCTFDDYAMH / GISWNYGSIGYADSVK / VGRGGGLFDY: 15 µM (2 of 3 replicates; controls 0 of 9).
GFTFDDYAMH / GISWNCGSIGYADSVK / VGRGGGYFDY: 3.9 µM (2 of 3 replicates; controls 0 of 9).
GFTTDDYAMH / GISWNPSSIGYADSVK / VGRGGGYFDY: 14 µM (1 of 3 replicates; controls 1 of 9).
GFTFDDYAMH / GISMNMGSIGYADSVK / VGRGGGYFDY: 170 nM (3 of 3 replicates; controls 4 of 9).
GFTFDDYAMH / GISWNHGSIGYADSVK / GGRGGGYFDY: no signal (0 of 3 replicates; controls 1 of 9).
GFTFDDYAMH / GISWNLGSIGYADSVK / VGRGGGYFDY: 24 µM (2 of 3 replicates; controls 1 of 9).
GFTFDLYAMH / GISWNTGSIGYADSVK / VGRGGGYFDY: 13 µM (1 of 3 replicates; controls 3 of 9).
GFTFDDYAMH / GNSWNYGSIGYADSVK / VRRGGGYFDY: no signal (0 of 3 replicates; controls 0 of 9).
GFTFDDYAMH / GISWNVGSIGYACSVK / VSRGGGYFDY: no signal (0 of 3 replicates; controls 0 of 9).
GFTFDDYAMH / GISWNKGSIGYGDSVK / VGRGGGYFDY: 5.3 µM (3 of 3 replicates; controls 1 of 9).
GFTFDDYAMH / GISWNVGSIGYADSVK / VGRGGVFFDY: 2.5 µM (1 of 3 replicates; controls 4 of 9).
GFTFDDYAMH / GISWNFGSIGYADSVK / VGRGRGYFDY: 14 µM (3 of 3 replicates; controls 5 of 9).
GFTFDIYIMH / GISWNAGSIGYADSVK / VGRGGGYFDY: no signal (0 of 3 replicates; controls 0 of 9).
GFTFDDYAMH / GISWNMRSIGYADSVK / VGRGGGPFDY: 1.2 mM (1 of 3 replicates; controls 2 of 9).
GFTFDDYAMH / GISWNQGSIGYADSVK / FGRGGLYFDY: 21 µM (1 of 3 replicates; controls 3 of 9).
GFTFDDYAMH / GISWNPGSIGYADSVY / VGRNGGYFDY: 86 µM (1 of 3 replicates; controls 3 of 9).
GFTFEDYAMH / GISWNYGSIGYADSVK / VGRGGGYFDY: 3.1 µM (2 of 3 replicates; controls 2 of 9).
GFTFDDYAMH / GISTNVGSIGYADSVK / VGRGGGYFDY: 15 µM (2 of 3 replicates; controls 1 of 9).
GFTFSDYAMH / GISWNTGSIGYADSVK / VGRGGGYWDY: no signal (0 of 3 replicates; controls 1 of 9).
GFTSDDYAMH / GISWNAGSIGYADSVK / VGRGGGHFDY: 59 µM (1 of 3 replicates; controls 4 of 9).
GFTFDDYAMH / GNSWNPGSIGYADSVK / VGTGGGYFDY: 300 µM (3 of 3 replicates; controls 4 of 9).
GFTFDDYAMH / GISNNQGSIGYADSVR / VGRGGGYFDY: 950 nM (3 of 3 replicates; controls 1 of 9).
GFTWDDYAMH / GISWNTGFIGYADSVK / VGRGGGYFDY: 11 µM (1 of 3 replicates; controls 0 of 9).
GFTFDDYAMH / GISLNCGSIGYADSVK / VGRGGGLFDY: no signal (0 of 3 replicates; controls 0 of 9).
GFTFDDYAMH / GISWNLGSIGYADSVK / VNRGGGYFRY: no signal (0 of 3 replicates; controls 0 of 9).
GFTFDDDAMH / GISWNLGTIGYADSVK / VGRGGGYFDY: 39 µM (3 of 3 replicates; controls 8 of 9).
GFTFDDYAMH / GISVNNVSIGYADSVK / VGRGGGYFDY: no signal (0 of 3 replicates; controls 4 of 9).
GFTFDDYVMH / WISWNAGSIGYADSVK / VGRGGGYFDY: 610 µM (2 of 3 replicates; controls 5 of 9).
GFNFDDYAMH / GISWNNGSIGYADSLK / VGRGGGYFDY: no signal (0 of 3 replicates; controls 1 of 9).

Picked from the list: the 5 lowest averages where every replicate gave a value.

| CDR-H1 | CDR-H2 | CDR-H3 | Kd | detected | signal with controls |
|---|---|---|---|---|---|
| GFTFDDYAMH | GISMNMGSIGYADSVK | VGRGGGYFDY | 170 nM | 3 of 3 | 4 of 9 |
| GFTFDDYAMH | GISNNQGSIGYADSVR | VGRGGGYFDY | 950 nM | 3 of 3 | 1 of 9 |
| GFTFDDYAMH | GISWNKGSIGYGDSVK | VGRGGGYFDY | 5.3 µM | 3 of 3 | 1 of 9 |
| GFTFDDYAMH | GISWNFGSIGYADSVK | VGRGRGYFDY | 14 µM | 3 of 3 | 5 of 9 |
| GFTFDDDAMH | GISWNLGTIGYADSVK | VGRGGGYFDY | 39 µM | 3 of 3 | 8 of 9 |

In this assay the parent's reference entry averaged 72 nM; its copy inside this library read 7.5 nM.
Nonspecific signal, from three strains lacking the peptide, appeared in 21% of pairings of library AAYL51, centred on 34 µM (5% of these signals below 1.8 µM); values are not corrected for it. For each scFv, signals with the empty controls are counted beside the result.